Experimental data as given in patent US10335367B2, “Use of selected anticholinergic zwitterions” (Bodor Laboratories, Inc., priority 2015, dated 2019).
Several values for one entry are separate records, joined by “and”; a condition that tells them apart may be missing. Equal entries are not always repeated.

Test system: human eyes
Assay: Mydriatic study of (2R)SGA & Tropicamide in human eyes (topical, pupil diameter)
Format: in vivo
Details: 1%; for AUC0-168 of % change in pupil size / % Change in pupil size / % dilation (% Change in pupil size) / Pupil Size / Pupil Size -Control: 0.1 ml

C[N+]1(CC(=O)[O-])CCC(OC(=O)[C@](O)(c2ccccc2)C2CCCC2)C1 (some centres unmarked)
Time to Emax (0.1 ml in each eye): 3 h
Emax, % (maximum mydriatic effect, % change in pupil size) (0.1 ml in each eye, mean of 2 subjects): 125.0%
AUC0-168 of % change in pupil size (Mean, Subjects 1 & 2): 7436.5
% Change in pupil size (Mean, Subjects 1 & 2, 0 hr): 0.0%
% Change in pupil size (Mean, Subjects 1 & 2, 0.25 hr): 25.0%
% Change in pupil size (Mean, Subjects 1 & 2, 0.5 hr): 70.8%
% Change in pupil size (Mean, Subjects 1 & 2, 0.75 hr): 95.8%
% Change in pupil size (Mean, Subjects 1 & 2, 1 hr): 108.3%
% Change in pupil size (Mean, Subjects 1 & 2, 1.5 hr): 108.3%
% Change in pupil size (Mean, Subjects 1 & 2, 2 hr): 112.5%
% Change in pupil size (Mean, Subjects 1 & 2, 3 hr): 125.0%
% Change in pupil size (Mean, Subjects 1 & 2, 4 hr): 120.8%
% Change in pupil size (Mean, Subjects 1 & 2, 5 hr): 114.6%
% Change in pupil size (Mean, Subjects 1 & 2, 6 hr): 114.6%
% Change in pupil size (Mean, Subjects 1 & 2, 7 hr): 106.3%
% Change in pupil size (Mean, Subjects 1 & 2, 8 hr): 106.3%
% Change in pupil size (Mean, Subjects 1 & 2, 12 hr): 100.0%
% Change in pupil size (Mean, Subjects 1 & 2, 24 hr): 83.3%
% Change in pupil size (Mean, Subjects 1 & 2, 36 hr): 66.7%
% Change in pupil size (Mean, Subjects 1 & 2, 48 hr): 56.3%
% Change in pupil size (Mean, Subjects 1 & 2, 72 hr): 45.8%
% Change in pupil size (Mean, Subjects 1 & 2, 96 hr): 29.2%
% Change in pupil size (Mean, Subjects 1 & 2, 120 hr): 20.8%
% Change in pupil size (Mean, Subjects 1 & 2, 144 hr): 14.6%
% Change in pupil size (Mean, Subjects 1 & 2, 168 hr): 8.3%
AUC0-168 of % change in pupil size (Subject 1 Left Eye): 10157.3
% dilation (% Change in pupil size) (Subject 1 Left Eye, 0 hr): 0%
Pupil Size (Subject 1 Left Eye, 0 hr): 3 mm
Pupil Size -Control (Subject 1 Left Eye, 0 hr): 0
% dilation (% Change in pupil size) (Subject 1 Left Eye, 0.25 hr): 17% and 16.7%
Pupil Size (Subject 1 Left Eye, 0.25 hr): 3.5 mm
Pupil Size -Control (Subject 1 Left Eye, 0.25 hr): 0.5
% dilation (% Change in pupil size) (Subject 1 Left Eye, 0.5 hr): 33% and 33.3%
Pupil Size (Subject 1 Left Eye, 0.5 hr): 4 mm
Pupil Size -Control (Subject 1 Left Eye, 0.5 hr): 1
% dilation (% Change in pupil size) (Subject 1 Left Eye, 0.75 hr): 83% and 83.3%
Pupil Size (Subject 1 Left Eye, 0.75 hr): 5.5 mm
Pupil Size -Control (Subject 1 Left Eye, 0.75 hr): 2.5
% dilation (% Change in pupil size) (Subject 1 Left Eye, 1 hr): 108% and 108.3%
Pupil Size (Subject 1 Left Eye, 1 hr): 6.25 mm
Pupil Size -Control (Subject 1 Left Eye, 1 hr): 3.25
% dilation (% Change in pupil size) (Subject 1 Left Eye, 1.5 hr): 108% and 108.3%
Pupil Size (Subject 1 Left Eye, 1.5 hr): 6.25 mm
Pupil Size -Control (Subject 1 Left Eye, 1.5 hr): 3.25
% dilation (% Change in pupil size) (Subject 1 Left Eye, 2 hr): 117% and 116.7%
Pupil Size (Subject 1 Left Eye, 2 hr): 6.5 mm
Pupil Size -Control (Subject 1 Left Eye, 2 hr): 3.5
% dilation (% Change in pupil size) (Subject 1 Left Eye, 3 hr): 133% and 133.3%
Pupil Size (Subject 1 Left Eye, 3 hr): 7 mm
Pupil Size -Control (Subject 1 Left Eye, 3 hr): 4
% dilation (% Change in pupil size) (Subject 1 Left Eye, 4 hr): 125%
Pupil Size (Subject 1 Left Eye, 4 hr): 6.75 mm
Pupil Size -Control (Subject 1 Left Eye, 4 hr): 3.75
% dilation (% Change in pupil size) (Subject 1 Left Eye, 5 hr): 117% and 116.7%
Pupil Size (Subject 1 Left Eye, 5 hr): 6.5 mm
Pupil Size -Control (Subject 1 Left Eye, 5 hr): 3.5
% dilation (% Change in pupil size) (Subject 1 Left Eye, 6 hr): 117% and 116.7%
Pupil Size (Subject 1 Left Eye, 6 hr): 6.5 mm
Pupil Size -Control (Subject 1 Left Eye, 6 hr): 3.5
% dilation (% Change in pupil size) (Subject 1 Left Eye, 7 hr): 100%
Pupil Size (Subject 1 Left Eye, 7 hr): 6 mm
Pupil Size -Control (Subject 1 Left Eye, 7 hr): 3
% dilation (% Change in pupil size) (Subject 1 Left Eye, 8 hr): 100%
Pupil Size (Subject 1 Left Eye, 8 hr): 6 mm
Pupil Size -Control (Subject 1 Left Eye, 8 hr): 3
% dilation (% Change in pupil size) (Subject 1 Left Eye, 12 hr): 100%
Pupil Size (Subject 1 Left Eye, 12 hr): 6 mm
Pupil Size -Control (Subject 1 Left Eye, 12 hr): 3
% dilation (% Change in pupil size) (Subject 1 Left Eye, 24 hr): 100%
Pupil Size (Subject 1 Left Eye, 24 hr): 6 mm
Pupil Size -Control (Subject 1 Left Eye, 24 hr): 3
% dilation (% Change in pupil size) (Subject 1 Left Eye, 36 hr): 100%
Pupil Size (Subject 1 Left Eye, 36 hr): 6 mm
Pupil Size -Control (Subject 1 Left Eye, 36 hr): 3
% dilation (% Change in pupil size) (Subject 1 Left Eye, 48 hr): 83% and 83.3%
Pupil Size (Subject 1 Left Eye, 48 hr): 5.5 mm
Pupil Size -Control (Subject 1 Left Eye, 48 hr): 2.5
% dilation (% Change in pupil size) (Subject 1 Left Eye, 72 hr): 67% and 66.7%
Pupil Size (Subject 1 Left Eye, 72 hr): 5 mm
Pupil Size -Control (Subject 1 Left Eye, 72 hr): 2
% dilation (% Change in pupil size) (Subject 1 Left Eye, 96 hr): 50%
Pupil Size (Subject 1 Left Eye, 96 hr): 4.5 mm
Pupil Size -Control (Subject 1 Left Eye, 96 hr): 1.5
% dilation (% Change in pupil size) (Subject 1 Left Eye, 120 hr): 33% and 33.3%
Pupil Size (Subject 1 Left Eye, 120 hr): 4 mm
Pupil Size -Control (Subject 1 Left Eye, 120 hr): 1
% dilation (% Change in pupil size) (Subject 1 Left Eye, 144 hr): 25%
Pupil Size (Subject 1 Left Eye, 144 hr): 3.75 mm
Pupil Size -Control (Subject 1 Left Eye, 144 hr): 0.75
% dilation (% Change in pupil size) (Subject 1 Left Eye, 168 hr): 17% and 16.7%
Pupil Size (Subject 1 Left Eye, 168 hr): 3.5 mm
Pupil Size -Control (Subject 1 Left Eye, 168 hr): 0.5
AUC0-168 of % change in pupil size (Subject 1 Right eye): 11707.3
% dilation (% Change in pupil size) (Subject 1 Right eye, 0 hr): 0%
Pupil Size (Subject 1 Right eye, 0 hr): 3 mm
Pupil Size -Control (Subject 1 Right eye, 0 hr): 0
% dilation (% Change in pupil size) (Subject 1 Right eye, 0.25 hr): 17% and 16.7%
Pupil Size (Subject 1 Right eye, 0.25 hr): 3.5 mm
Pupil Size -Control (Subject 1 Right eye, 0.25 hr): 0.5
% dilation (% Change in pupil size) (Subject 1 Right eye, 0.5 hr): 33% and 33.3%
Pupil Size (Subject 1 Right eye, 0.5 hr): 4 mm
Pupil Size -Control (Subject 1 Right eye, 0.5 hr): 1
% dilation (% Change in pupil size) (Subject 1 Right eye, 0.75 hr): 83% and 83.3%
Pupil Size (Subject 1 Right eye, 0.75 hr): 5.5 mm
Pupil Size -Control (Subject 1 Right eye, 0.75 hr): 2.5
% dilation (% Change in pupil size) (Subject 1 Right eye, 1 hr): 108% and 108.3%
Pupil Size (Subject 1 Right eye, 1 hr): 6.25 mm
Pupil Size -Control (Subject 1 Right eye, 1 hr): 3.25
% dilation (% Change in pupil size) (Subject 1 Right eye, 1.5 hr): 108% and 108.3%
Pupil Size (Subject 1 Right eye, 1.5 hr): 6.25 mm
Pupil Size -Control (Subject 1 Right eye, 1.5 hr): 3.25
% dilation (% Change in pupil size) (Subject 1 Right eye, 2 hr): 117% and 116.7%
Pupil Size (Subject 1 Right eye, 2 hr): 6.5 mm
Pupil Size -Control (Subject 1 Right eye, 2 hr): 3.5
% dilation (% Change in pupil size) (Subject 1 Right eye, 3 hr): 133% and 133.3%
Pupil Size (Subject 1 Right eye, 3 hr): 7 mm
Pupil Size -Control (Subject 1 Right eye, 3 hr): 4
% dilation (% Change in pupil size) (Subject 1 Right eye, 4 hr): 125%
Pupil Size (Subject 1 Right eye, 4 hr): 6.75 mm
Pupil Size -Control (Subject 1 Right eye, 4 hr): 3.75
% dilation (% Change in pupil size) (Subject 1 Right eye, 5 hr): 117% and 116.7%
Pupil Size (Subject 1 Right eye, 5 hr): 6.5 mm
Pupil Size -Control (Subject 1 Right eye, 5 hr): 3.5
% dilation (% Change in pupil size) (Subject 1 Right eye, 6 hr): 117% and 116.7%
Pupil Size (Subject 1 Right eye, 6 hr): 6.5 mm
Pupil Size -Control (Subject 1 Right eye, 6 hr): 3.5
% dilation (% Change in pupil size) (Subject 1 Right eye, 7 hr): 100%
Pupil Size (Subject 1 Right eye, 7 hr): 6 mm
Pupil Size -Control (Subject 1 Right eye, 7 hr): 3
% dilation (% Change in pupil size) (Subject 1 Right eye, 8 hr): 100%
Pupil Size (Subject 1 Right eye, 8 hr): 6 mm
Pupil Size -Control (Subject 1 Right eye, 8 hr): 3
% dilation (% Change in pupil size) (Subject 1 Right eye, 12 hr): 100%
Pupil Size (Subject 1 Right eye, 12 hr): 6 mm
Pupil Size -Control (Subject 1 Right eye, 12 hr): 3
% dilation (% Change in pupil size) (Subject 1 Right eye, 24 hr): 100%
Pupil Size (Subject 1 Right eye, 24 hr): 6 mm
Pupil Size -Control (Subject 1 Right eye, 24 hr): 3
% dilation (% Change in pupil size) (Subject 1 Right eye, 36 hr): 100%
Pupil Size (Subject 1 Right eye, 36 hr): 6 mm
Pupil Size -Control (Subject 1 Right eye, 36 hr): 3
% dilation (% Change in pupil size) (Subject 1 Right eye, 48 hr): 92% and 91.7%
Pupil Size (Subject 1 Right eye, 48 hr): 5.75 mm
Pupil Size -Control (Subject 1 Right eye, 48 hr): 2.75
% dilation (% Change in pupil size) (Subject 1 Right eye, 72 hr): 83% and 83.3%
Pupil Size (Subject 1 Right eye, 72 hr): 5.5 mm
Pupil Size -Control (Subject 1 Right eye, 72 hr): 2.5
% dilation (% Change in pupil size) (Subject 1 Right eye, 96 hr): 67% and 66.7%
Pupil Size (Subject 1 Right eye, 96 hr): 5 mm
